In data set [1] the test system is SH-SY5Y. Nature of the data set: Cytotoxicity against undifferentiated human SH-SY5Y cells. It is filed as toxicity, cell-based.
A short description of data set [2]: Toxicity in wild type Caenorhabditis elegans N2 at 0.1 to 100 uM in presence of Escherichia coli OP50 measured daily for 6 days by food clearance assay. As to conditions: dose 0.1-100 µM, time 6 day.
A short description of data set [3]: Toxicity in wild type Caenorhabditis elegans N2 assessed as effect on worm growth at 0.1 to 100 uM in presence of Escherichia coli OP50 measured daily for 6 days by visual inspection. To be noted: dose 0.1-100 µM, time 6 day.
For data set [4], the system named is SH-SY5Y. Briefly: Cytotoxicity against human SH-SY5Y cells assessed as reduction in cell viability at high concentrations by MTT assay. It is filed as toxicity, cell-based.
In data set [5] the test system is SH-SY5Y. Briefly: Cytotoxicity against human SH-SY5Y cells assessed as reduction in cell viability at 0.5 uM by MTT assay. The format is toxicity, cell-based.

Each structure is given as a SMILES string.

With `CCCNNC(=O)c1ccc(S(=O)(=O)n2ccc3cc(OC)ccc32)cc1`, the Activity result with SH-SY5Y [1] is recorded as “Toxic”.
Turning to `CCCNNC(=O)c1ccc(S(=O)(=O)n2ccc3cc(OCCCN4CCCCC4)ccc32)cc1`, in the data set with SH-SY5Y [1], the Activity entry is “Toxic”.
For the molecule `O=C(NO)c1ccc(S(=O)(=O)n2ccc3cc(OCCCN4CCCCC4)ccc32)cc1`, the Activity entry in data set [2] is reported as “Non-Toxic”; in data set [3], “Non-Toxic”; in the data set on SH-SY5Y [4], “Toxic”; in the data set with SH-SY5Y [5] it was “Non-Toxic”.
